# Values of other authors, collected in publication PMC3969379, “Neospora caninum Calcium-Dependent Protein Kinase 1 Is an Effective Drug Target for Neosporosis Therapy” (PLoS ONE, 2014).
# Test system: N. caninum
# Details: prolonged administration; cited from earlier work
smiles,measurement,value
CCC[C@@H]1C[C@@H](C(=O)N[C@@H]([C@H]2O[C@H](SC)[C@H](O)[C@@H](O)[C@H]2O)[C@H](C)Cl)N(C)C1 [clindamycin],cases of canine neosporosis with clinical signs eliminated,less than 40%
